Results published in article PMC11742319, “Phosphorylation regulates the chromatin remodeler SMARCAD1 in nucleosome binding, ATP hydrolysis, and histone exchange”.

Target: T1, WT SMARCAD1, dephosphorylated V974A (human) (UniProt Q9H4L7)
T1 sequence: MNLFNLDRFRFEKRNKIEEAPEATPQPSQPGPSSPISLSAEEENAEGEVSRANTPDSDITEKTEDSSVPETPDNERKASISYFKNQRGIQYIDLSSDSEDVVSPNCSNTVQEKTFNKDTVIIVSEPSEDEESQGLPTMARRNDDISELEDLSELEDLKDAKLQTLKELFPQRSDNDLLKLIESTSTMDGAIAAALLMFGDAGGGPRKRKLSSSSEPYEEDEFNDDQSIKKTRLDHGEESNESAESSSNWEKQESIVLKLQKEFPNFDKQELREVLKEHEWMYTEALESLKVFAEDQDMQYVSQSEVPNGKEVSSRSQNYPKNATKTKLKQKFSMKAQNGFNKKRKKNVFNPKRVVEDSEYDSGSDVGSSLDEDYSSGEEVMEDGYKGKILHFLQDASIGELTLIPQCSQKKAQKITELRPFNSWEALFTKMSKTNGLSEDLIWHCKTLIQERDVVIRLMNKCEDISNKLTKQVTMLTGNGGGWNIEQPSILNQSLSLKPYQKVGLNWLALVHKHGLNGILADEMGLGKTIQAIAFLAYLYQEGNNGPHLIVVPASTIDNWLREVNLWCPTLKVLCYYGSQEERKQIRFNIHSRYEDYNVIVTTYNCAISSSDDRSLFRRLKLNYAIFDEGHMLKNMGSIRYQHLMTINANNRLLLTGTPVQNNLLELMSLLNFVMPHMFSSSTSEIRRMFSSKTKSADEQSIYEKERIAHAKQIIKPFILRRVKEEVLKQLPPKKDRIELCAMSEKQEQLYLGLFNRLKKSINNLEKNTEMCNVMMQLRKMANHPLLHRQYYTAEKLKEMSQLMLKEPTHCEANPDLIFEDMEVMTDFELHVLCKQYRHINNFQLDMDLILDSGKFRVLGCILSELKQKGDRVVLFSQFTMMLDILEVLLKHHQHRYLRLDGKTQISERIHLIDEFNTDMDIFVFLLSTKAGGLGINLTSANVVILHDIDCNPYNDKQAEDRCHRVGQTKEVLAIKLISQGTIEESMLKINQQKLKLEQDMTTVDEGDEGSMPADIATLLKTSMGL
Assay: fluorescence polarization
Details: dephosphorylated (CIP); FP: 50 mM HEPES pH 7.5, 2 mM DTT, 10% glycerol, 0.01% CHAPS, 0.01% NP-40, no added salt stated, room temperature 30 min; 10 nM nucleosome or DNA, 0-5 uM …

## CGAGCCAGGCCTGAGAATCCGGTGCCGAGGCCGCTCAATTGGTCGTAGACAGCTCTAGCACCGCTTAAACGCACGTACGCGCTGTCCCCCGCGTTTTAACCGCCAAGGGGATTACTCCCTAGTCTCCAGGCACGTGTCAGATATATACATCCAGGCCTTGTGTCG (double strand) [165 bp 601 nucleosome (7N11)]
  Kd: 85 nM
